## Antibody variant affinities, Ab-14 light chain, assay B

Values reported by Li et al. 2023, doi:10.1038/s41467-023-39022-2 (FLAb copy).

All variants were tested on one target, the spike HR2 peptide PDVDLGDISGINAS (SARS-CoV-2).

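The parent was found by panning a naive human phage display library on the peptide. Designed CDR sequences, proposed from the first random library and measured here. Group labels follow the data file (En: ensemble of fine-tuned language models; GP: Gaussian process model; HC: hill climbing; Gen: genetic algorithm; Gibbs: Gibbs sampling; a sequence that several methods proposed may carry one label only). In AlphaSeq, yeast of one mating type display the scFv and yeast of the other type display the target. Binding brings cells together so that they mate, and sequencing counts the barcode pairs among the diploids. Each replicate has its own calibration line, from reference interactions of the BCL2 family. The assay was run in six technical replicates.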

Ab-14 is the parent antibody, in scFv form: VH, then a 15-residue (Gly4Ser)3 linker, then VL. The heavy chain is unchanged in all variants.
VH: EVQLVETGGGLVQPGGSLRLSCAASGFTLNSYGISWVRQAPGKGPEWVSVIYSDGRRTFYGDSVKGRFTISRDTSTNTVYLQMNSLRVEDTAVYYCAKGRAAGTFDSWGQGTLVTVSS
VL: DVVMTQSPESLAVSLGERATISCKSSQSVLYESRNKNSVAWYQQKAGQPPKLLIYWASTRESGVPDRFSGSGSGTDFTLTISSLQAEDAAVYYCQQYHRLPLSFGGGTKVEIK

The parent's light chain CDRs are KSSQSVLYESRNKNSVA, WASTRES, QQYHRLPLS; each variant's own CDRs replace them letter for letter.
This list holds designs with more than six substitutions.
Kd is apparent (estimated from mating counts) and averaged on the log scale over replicates with a signal. Smaller is tighter.
A pair that was not seen in any replicate is written "nd"; this usually means weak binding, but a binder can also be missed.
Of ten entries with the parent sequence, four were seen in most replicates (averages 2.2 nM to 240 nM), three in one and three in none, so single entries are noisy.

With HMSMITLGGMRARNSVA | QMTTREN | QQYDHLPLS [En_Gen] the result was 15 nM (5 of 6 replicates; controls 0 of 18).
With KISAVMENQLKNRNSVA | ELVTRVN | QQYNRLPLS [En_Gen] the result was 31 nM (6 of 6 replicates; controls 0 of 18).
With KIGQITTYHSQVGNSIA | QTSTREE | QQYHRLPLS [En_HC] the result was 5.9 nM (6 of 6 replicates; controls 3 of 18).
With KISQLVNFEGKNKNSVA | QMSTRES | QQYDRLPLS [En_HC] the result was 2.0 nM (6 of 6 replicates; controls 0 of 18).
With HVSSMDMTDGGIKKSVA | GDKETER | QQYMRLPLS [En_Gibbs] the result was 2.9 nM (6 of 6 replicates; controls 1 of 18).
With NFSQMVLVGSTLKNSVA | HASTREE | QQYHRLPLI [En_HC] the result was 2.9 nM (6 of 6 replicates; controls 1 of 18).
With KISQNMGETQRNKNSVA | EVSTVPS | QQYWRLPLS [En_HC] the result was 29 nM (6 of 6 replicates; controls 2 of 18).
With KISQLVNFLGKNKNSVA | QMSTREE | QQYDRLPLS [En_HC] the result was 89 nM (3 of 6 replicates; controls 1 of 18).
With MIEEGNAGEIKNSSNIA | SQDQKSD | QQYQRLPLI [En_Gibbs] the result was 140 nM (6 of 6 replicates; controls 2 of 18).
With TIGGTLMYGVRNRSNVA | EVSQRLN | QQYDRLPLI [En_Gen] the result was 62 nM (6 of 6 replicates; controls 2 of 18).
With KLSALFYKESKNKNNVA | EMTTRGS | QQYDRLPLS [En_HC] the result was 880 pM (6 of 6 replicates; controls 0 of 18).
With KISYLGEYFSTNHSAIA | QASTREQ | QQYHRLPLS [En_HC] the result was 4.2 nM (6 of 6 replicates; controls 1 of 18).
With KIGMTLNTLTHQKNNVA | DLVEREN | QQYFRLPLS [En_Gen] the result was 870 pM (6 of 6 replicates; controls 0 of 18).
With QISMNLEIYDQEQWAVA | HGEMRTE | QQYHKLPLS [En_Gibbs] the result was 3.8 nM (5 of 6 replicates; controls 1 of 18).
With KISQMSAIESITHNSVA | QTSTRES | QQYDRLPLS [En_HC] the result was 49 nM (6 of 6 replicates; controls 1 of 18).
With ILSDHAENQYDREDSIA | DKKERAQ | QQYAHLPLS [En_Gibbs] the result was 5.2 nM (6 of 6 replicates; controls 0 of 18).
With KQSQSDEGEQRNKNSVA | EASTRCM | QQYHRLPLS [GP_Gibbs] the result was 2.3 nM (6 of 6 replicates; controls 0 of 18).
With RFQQWSLESNNTEKSIA | SASNREQ | QQYARLPLF [En_Gibbs] the result was 890 pM (6 of 6 replicates; controls 0 of 18).
With HMSMLTLQGMRMRNSVA | QMTTREN | QQYDHLPLA [En_Gen] the result was 6.5 nM (6 of 6 replicates; controls 1 of 18).
With RLQQEHGGYPKMMDNIA | QGSQRQH | QSYDRLPLS [En_Gibbs] the result was 2.9 nM (6 of 6 replicates; controls 0 of 18).
With KMETHSQDNRLDWSAVA | EAQTIYQ | QQYARLPLS [En_Gibbs] the result was 7.0 nM (6 of 6 replicates; controls 1 of 18).
With KLSQSVLYQMQLKNSVA | NAQTRMS | QQYHRLPLS [GP_Gibbs] the result was 1.2 nM (6 of 6 replicates; controls 1 of 18).
With SLYEMSYELSGKTHSVA | DNSTRGD | QQYFRLPLE [En_Gen] the result was 9.6 nM (6 of 6 replicates; controls 1 of 18).
With KIMQTLNYEQFNVSNVA | GQETRER | QSYHRLPLS [En_HC] the result was 14 nM (2 of 6 replicates; controls 1 of 18).
With KISFQYRYEQLSKNSIA | EVQTRLK | QQYHRLPLS [En_HC] the result was 14 nM (6 of 6 replicates; controls 1 of 18).
With NVHALMNISSEFQNSIA | DSECRDA | QQYFRLPLS [En_Gibbs] the result was 16 nM (6 of 6 replicates; controls 1 of 18).
With MAYGGDMLESVTRNSVA | NAETRED | QDYHRLPLS [En_HC] the result was 6.2 nM (6 of 6 replicates; controls 0 of 18).
With KLDQWVEYESRNKNSVA | SASQRFS | QQYHRLPLS [GP_Gibbs] the result was 6.5 nM (6 of 6 replicates; controls 3 of 18).
With MLSEVLHMLGVKKNSIA | DLVLRAN | QQYHRLPLF [En_Gen] the result was 130 nM (1 of 6 replicates; controls 0 of 18).
With HITYGMMVHGRHSSSIA | QAEERAK | QQYDRLPLS [En_Gen] the result was 8.2 nM (6 of 6 replicates; controls 1 of 18).
With KLSQVTHSESRNKNSIA | EMVTREV | QQYDRLPLS [En_HC] the result was 61 nM (6 of 6 replicates; controls 1 of 18).
With MFSQSVMYGSFMRNSVA | QTSTREQ | QQYDRLPLS [En_HC] the result was 3.2 nM (6 of 6 replicates; controls 2 of 18).
With KLSCSVLYDEPNSNSVA | NASTRPM | QQYHRLPLS [GP_Gibbs] the result was 1.9 nM (6 of 6 replicates; controls 4 of 18).
With HMSMLTRGGMRQRNSVA | QMTTREN | QQYDRLPLS [En_Gen] the result was 87 nM (5 of 6 replicates; controls 0 of 18).
With QIYQAMHTLSQMKDNVA | DVNERGS | QQYFRLPLS [En_Gen] the result was 1.5 nM (6 of 6 replicates; controls 0 of 18).
With QLAVDRLQEYKMGAAIA | GKTTVED | QQYARLPLS [En_Gibbs] the result was 30 nM (6 of 6 replicates; controls 0 of 18).
With KISFQYRYEQLSKDSIA | EAQTRLK | QQYHRLPLS [En_HC] the result was nd (0 of 6 replicates; controls 0 of 18).
With MISDLTMLGSRNKNSVA | DLSTRGS | QQYHRLPLS [En_HC] the result was 1.7 nM (6 of 6 replicates; controls 1 of 18).
With HISMSMNYLTRNKNSIA | EESTRED | QQYHRLPLS [En_HC] the result was 840 pM (6 of 6 replicates; controls 1 of 18).
With KLEQSGGYEQRNKNSVA | EASTRED | QQYHRLPLS [GP_Gibbs] the result was 710 pM (6 of 6 replicates; controls 0 of 18).
With HIDILNRGETLKQDDIA | NADHREQ | QQYFHLPLA [En_Gibbs] the result was 4.8 nM (6 of 6 replicates; controls 0 of 18).
With TLGDVTRQESNKKSNIA | DMSNRAA | QQYHRLPIS [En_HC] the result was 3.8 nM (6 of 6 replicates; controls 1 of 18).
With KLEQSWWGEWRNKNSVA | HASTREQ | QDYHRLPLS [GP_Gibbs] the result was 1.4 nM (6 of 6 replicates; controls 2 of 18).
With ILSQMMLTAGNKHSSVA | QANNRED | QQYHRLPLS [En_HC] the result was 24 nM (6 of 6 replicates; controls 1 of 18).
With TISQSVLMTGLNRNSVA | QAETRIE | QQYHRLPLS [En_HC] the result was 25 nM (6 of 6 replicates; controls 2 of 18).
With KLEDSNRWHLRGTNAVA | QASTRAA | QQYQRLPFL [En_Gibbs] the result was 10 nM (6 of 6 replicates; controls 3 of 18).
With KLSGSVEQLSRNKNSVA | HASLREV | QAYHRLPLS [GP_Gibbs] the result was 4.2 nM (6 of 6 replicates; controls 2 of 18).
With HFAHPWQSGYESKQNVA | NDSTVMT | QHYNRLPLS [En_Gibbs] the result was 730 nM (2 of 6 replicates; controls 1 of 18).
With SLGLVTMLEYAGRNNVA | NNSTRES | QQYDRLPLS [En_Gen] the result was 44 nM (6 of 6 replicates; controls 3 of 18).

A sequence measured in both rounds can read differently, since the two assays cover different ranges.
As a blank, each scFv also met three strains without target: over all light chain designs, 4% of these pairings were detected, typically at 430 nM and seldom below 38 nM. The control count says in how many pairings with the empty strains this scFv gave a signal.
The authors averaged sequences with at least three values out of six and counted those with two or fewer as poor binders.